Columns and labels:
Assay type in all cases: cell-based, human
H1975 cells = assay: CellTiter-Glo cell viability assay, H1975; settings: 1% FCS, CTG
Protocol: (§1) Inhibition of cellular proliferation of cells expressing EGFR is examined in vitro as follows: HCC827 and H1975 cancer cells are seeded in 96 well tissue culture plates at 5,000 cells per well and grown in RPMI-1640 medium supplemented with antibiotics, 2 mM L-glutamine and 10% fetal calf serum (FCS) for 24 hours at 37° C. and 5% carbon dioxide. […] Cell viability is measured using the CellTiter-Glo® (CTG) Luminescent Cell Viability Assay (Promega Corporation, cat# G7572) according to manufacturer's instructions. The CTG assay measures the number of viable cells in culture based upon quantitation of ATP present, which is an indicator of metabolically active cells. Control treatments include cells treated with RPMI-1640 with antibiotics, 2 mM L-glutamine, 1% FCS in the presence (referred to as “+EGF” or “+AREG”) or absence (referred to as “−EGF” or “−AREG”) of 50 ng/mL EGF or 200 ng/ml AREG.
(§2) Inhibition of tumor cell proliferation in vitro was analyzed by the methods described above or minor variations thereof. […] FIGS. 9A-9D show inhibition of cell proliferation using CellTiter-Glo® (CTG) Luminescent Cell Viability Assay (Promega Corporation) that measures the number of viable cells in culture based upon quantitation of ATP present, which is an indicator of metabolically active cells. […]

HCC827 cells = assay: CellTiter-Glo cell viability assay, HCC827; settings: 1% FCS, CTG
Protocol: as §1, §2

[1] = system: total EGFR (tEGFR) in DU-145 cells; assay: EGF receptor down-regulation in DU-145 cells (immunoblot); settings: DU-145 cells, 2, 6 or 24 hours; 50 nM (IgG trio, cetuximab) or 100 nM (Fab trio)
Protocol: To prepare cell lysates, H1975 cells are trypsinized, harvested, counted, and plated in 6 well dishes at 1×10^6 cells per well and incubated overnight to allow attachment to the culture plate. […] Cells are lysed with 100 μl of Mammalian Protein Extraction Reagent (Pierce, cat#78505). Protein extraction reagent is supplemented with PhosSTOP (Roche, cat#04906837001) and Protease Inhibitor Cocktail tablets (Roche, cat#04693124001). […] Following transfer of proteins to a nitrocellulose membrane, nonspecific sites are blocked by incubation with Odyssey blocking buffer (LI-COR, cat#927-400-00) for one hour at room temperature. Membranes are incubated as required with mouse monoclonal anti-EGFR (1F4—labeling tEGFR; Cell Signaling, cat#2239); rabbit monoclonal anti-phospho44/42 MAPK (Erk1/2, Thr202/Tyr204, D13.14.4E—labeling pERK; Cell Signaling, cat#4370); rabbit monoclonal anti-phosphoAKT (Ser473, 193H12; Cell Signaling, cat#4058); rabbit monoclonal phospho-c-Jun (Ser73, D47G9—labeling p-c-Jun; Cell Signaling, cat#3270) and rabbit anti-PCNA (FL-261) (Santa Cruz Biotechnology, cat# sc-7907). […] Bands are detected using LI-COR Odyssey Infrared Imaging System and analyzed using Odyssey software. […]

## cetuximab: commercially available pharmaceutical anti-EGFR antibody (Bristol-Myers Squibb)
H1975 cells; 50 ng/mL EGF
  inhibition of growth of H1975 cells, EGF ligand: not
H1975 cells; 200 ng/ml AREG
  inhibition of growth of H1975 cells, AREG ligand: potent inhibition of growth
HCC827 cells; 50 ng/mL EGF
  inhibition of growth of HCC827 cells, EGF ligand: not
HCC827 cells; 200 ng/ml AREG
  inhibition of growth of HCC827 cells, AREG ligand: potent inhibition of growth
[1]
  down-regulation of EGFR: did not lead to observable down-regulation of EGFR
